# In PubChem BioAssay AID1347073 (National Center for Advancing Translational Sciences (NCATS), 2019):
# Only a part is listed here, and it is no random draw. Some results for these compounds are left out of this collection, so the calls shown say nothing about other tests. Records with an inconclusive call do not appear. Activity calls are given as the source filed them. Calls follow the shape of the dose curve; as a rule, active = well fitted activation curve with a large enough effect; inconclusive = small, poorly fitted or top-dose-only effect; inactive = no such curve, though single readings can be large or run the other way.
# Assay: qHTS of TDP-43 Inhibitors: NCGC Sytravon Library Screen; also: 0% is about no effect; nearly all actives have a fitted effect of over 55% in size
# Conditions: yeast TDP-43 toxicity rescue, BacTiter-Glo growth, 24 h; at 46.1 µM (top of the series)
# From the text: The goal of this project is to identify new chemical probes capable of reversing the toxicity associated with TDP-43 which is associated with frontotemporal lobar degeneration and amyotrophic lateral sclerosis. These compounds will provide a complementary approach to deciphering the tangled mechanisms of toxicity and protection that we have uncovered through genome-wide genetic screens and are beginning to uncover in a large-scale proteomics analysis with mass spectroscopy. To this end, a miniaturized assay was developed to be screened against the Molecular Libraries Small Molecule Repository (MLSMR) to discover TDP-43 inhibitors. Please note that in the set-up this yeast-based assay compounds that inhibit as TDP-43, have a read-out as activators. NIH Chemical Genomics Center [NCGC] NIH Molecular Libraries Probe Centers Network [MLPCN] Assay Submitter (PI): Susan Lindquist, Whitehead Institute/MIT MLPCN Grant: R21 NS060957
# Dispense 2.5 microL yeast galactose medium per 1536-well plate, pin compound, dispense 2.5 microL TDP-43 expressing yeast in galactose medium at OD600=0.02 (pregrown in raffinose medium to mid-log phase) per well, incubate for 24 hr at 30 deg C, and cell growth will be measured using 5 microL of Bactiter/Glo reagent to entire plate and read using Luminescence Protocol in ViewLux.
row,SMILES,growth rescue (activation)
1,O=C(OC1CN2CCC1CC2)C(CO)(c1ccccc1)c1ccccc1 (configuration not stated),inactive: 5.62%
2,CN(C)C1(CNC(=O)c2ccc(Br)cc2)CCCCC1,inactive: -5.47%
3,CN(C)C1CCCC1OC(=O)C(O)(c1ccccc1)c1ccccc1 (configuration not stated),inactive: 3.88%
4,O=C(NCC1(N2CCCCC2)CCCCC1)c1cccc(Br)c1,inactive: 12.2%
5,Cc1cc(C(=O)NCC2(N3CCCCC3)CCCCC2)ccc1[N+](=O)[O-],inactive: 12.4%
6,Cc1ccc(C(=O)NCC2(N3CCCCC3)CCCCC2)cc1,inactive: -25.4%
7,CCN(CC)CC(C)C(C)OC(=O)C(O)(c1ccccc1)c1ccccc1 (configuration not stated),inactive: 29%
